# Most compounds without a hit are left out; they make up all but 0.46% or so of the library.
# GIV Gai3 FP = GIV-Galpha-i interaction inhibition; AID 1224905; 210,000 tested, 0.42% active; Galpha-i3/FITC-GIV peptide fluorescence polarization, 90 min; stronger effect = lower value; scaled: aluminum fluoride 0%, vehicle 100%; percent of control (FP), % (concentration not given with the values);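 active = replicate mean at 85% of control or lower, very high polarization wells dropped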;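 also: wells of about 15 µL received 100 nL stock; the first replicate is given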
# HCMV UL50-53 inh = inhibitors of HCMV UL50-UL53 interaction, biochemical, HTRF. AID 1918969, 2023. inhibition, % (test concentration not listed). normalized percent inhibition. 0.15% of 190,000 active. HCMV UL50-UL53 nuclear egress complex (human cytomegalovirus); in the data active = inhibition above about 27%, passing the limit was not always enough
# GIV Gai FP conf = inhibitors of GIV peptide binding to Galpha-i3, confirmation, biochemical, fluorescence polarization, FITC-GIV peptide, rat Galphai3; shares compounds with GIV Gai3 FP; active compounds read low; fluorescence polarization, mP at 100 µM; 38% of 580 active;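 active = inhibition score of 15 or more, meaning 100 minus mean polarization as percent of control over three replicates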;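 note: lower mP means peptide displaced from Galphai3 so more inhibition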
# GIV-Gai AS conf = inhibitors of GIV binding to Galpha-i3, confirmation, orthogonal assay for GIV-Galpha-i inhibitor project, biochemical, AlphaScreen, His-GIV, GST-Galphai3 | shares compounds with GIV Gai3 FP | purified proteins, 90 min; active compounds read low | AlphaScreen counts at 100 µM | 39% of 580 active | AID 1259351, 2017;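 active = inhibition score at or above a set limit, where the score is 100 minus the three-replicate mean percent of control signal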
# Hits are given with their value; i = inactive; nt = no result; ! = repeats disagree.
SMILES,GIV Gai3 FP,HCMV UL50-53 inh,GIV Gai FP conf,GIV-Gai AS conf
CCC1CCCCN1C(=O)CSc1c2c(nc3ccccc13)CCC2 (stereo not drawn),i,i,nt,nt
Cc1ccccc1C1(c2ccccc2C)SC2(SC(C(=O)c3ccccc3)=NN2c2ccccc2)c2ccccc21 (stereo not drawn),i,nt,nt,nt
COc1ccc(OC)c(C2C(C(=O)Nc3nc4ccccc4s3)=C(C)NC3=C2C(=O)CC(C)(C)C3)c1 (stereo not drawn),i,i,nt,nt
COc1ccc(OC)c(C2C(C(=O)Nc3nc4ccc(Br)cc4s3)=C(C)NC3=C2C(=O)CC(C)(C)C3)c1 (stereo not drawn),i,i,i,i
COC(=O)CNC(=O)NCCCn1c(C(F)(F)F)nc2cccnc21,80,i,59,i
O=C(NCCc1ccccc1)NCCn1c(C(F)(F)F)nc2cccnc21,i,i,nt,nt
COc1ccccc1CNc1ccc(C(=O)N2CCN(C(C)=O)CC2)cc1S(=O)(=O)Nc1cccc(C(F)(F)F)c1,i,nt,nt,nt
CCc1ccc2c(c1)[C@H]1OCC[C@H]1C(c1cc(Br)c(OC)c(OC)c1)N2 (stereo partly drawn),i,nt,nt,nt
COc1ccccc1NC(=O)c1sc2nc3c(cc2c1N)CCCCCC3,i,i,nt,nt
COc1ccc(NC(=O)c2sc3nc4c(cc3c2N)CCCCCC4)cc1OC,80,i,i,i
Nc1c(C(=O)Nc2cccc(Cl)c2)sc2nc3c(cc12)CN(Cc1ccccc1)CC3,79,i,i,i
Cc1cccc(NC(=O)c2sc3nc4c(cc3c2N)CN(Cc2ccccc2)CC4)c1,i,i,nt,nt
COc1ccc(NC(=O)NCc2ccc3c(c2)N(C(=O)c2ccc(C)cc2)CC3)cc1OC,i,nt,nt,nt
CN(Cc1ccc(Br)s1)Cn1nnc(-c2ccccc2)n1,nt,i,nt,nt
CC(=O)Nc1nnc(CC(=O)N/N=C/c2ccc(Cl)cc2)s1,i,i,nt,nt
Cc1noc(C)c1/C=C/C(=O)Nc1ccccc1C(C)(C)C,nt,i,nt,nt
O=C(Nc1ccc2c(c1)OCCO2)c1cccc(-c2cc(N3CCCC3)ncn2)c1,i,nt,nt,nt
O=C(CC1(O)C(=O)N(Cc2ccccc2Cl)c2ccccc21)c1cccs1 (stereo not drawn),i,nt,nt,nt
COc1ccccc1Nc1nc2ccc(C)cc2n2nnnc12,74,i,i,i
CCOC(=O)c1ccccc1Nc1nc2ccc(C)cc2n2nnnc12,i,i,nt,nt
Fc1ccccc1N1CCN(c2c3c(nc4ncnn24)CCC3)CC1,i,i,nt,nt
O=C(NCc1ccc(F)cc1)c1ccc(-n2c(=O)c(=O)n(Cc3ccccc3)c3cccnc32)cc1,i,i,nt,nt
CC1(C)C=C2C(=NN(c3ccccc3)C(N)=C2C#N)CO1,83,i,i,i
CCC1(C)Cc2c(C#N)c(N)n(-c3ccccc3)c(=O)c2CO1 (stereo not drawn),nt,i,nt,nt
C=CCN(CC(=O)N1CCCc2ccccc21)S(=O)(=O)c1cccs1,nt,i,nt,nt
SMILES,GIV Gai3 FP,HCMV UL50-53 inh,GIV Gai FP conf,GIV-Gai AS conf
Cc1cccc(-c2nn3c(=O)cc(N4CCN(C(=O)Nc5ccc6c(c5)OCO6)CC4)nc3s2)c1,i,i,nt,nt
Cc1ccccc1-c1nn2c(=O)cc(N3CCN(C(=O)Nc4ccccc4)CC3)nc2s1,i,i,nt,nt
Cc1ccccc1-c1nn2c(=O)cc(N3CCN(C(=O)Nc4cccc(F)c4)CC3)nc2s1,i,i,i,i
Cc1cccc(NC(=O)N2CCN(c3cc(=O)n4nc(-c5cccc(C)c5)sc4n3)CC2)c1,i,i,i,i
O=C(c1cc2n(n1)CCCN(Cc1ccc(F)cc1)C2=O)N1CCC(N2CCCCC2)CC1,i,i,nt,nt
O=C(Nc1ccccc1)c1ccc(=O)n(CC(=O)N2CCN(c3ccccc3)CC2)n1,i,nt,nt,nt
COc1ccc2nc(N(Cc3cccnc3)C(=O)Cc3ccccc3)sc2c1,i,nt,nt,nt
CCc1ccc2nc(N(Cc3cccnc3)C(=O)Cc3ccccc3)sc2c1,37,nt,i,i
COCC(=O)N1CCN(c2ncnc3c(-c4ccc(Cl)cc4)nsc23)CC1,i,i,nt,nt
O=C(NCCc1c[nH]c2ccccc12)/C(=C/c1ccco1)NC(=O)c1cccs1,i,nt,nt,nt
CCOC(=O)C(Cc1ccc(O)cc1)NC1=CC(=O)C(=O)c2ccccc21 (stereo not drawn),82,nt,53,i
CCOC(=O)C(Cc1ccc(O)cc1)NS(=O)(=O)c1ccc2c(c1)C(=O)c1ccccc1C2=O (stereo not drawn),i,nt,nt,nt
Cc1ccc(-c2c(C(F)(F)F)nn3c(-n4nc(C)cc4C)cc(C)nc23)cc1,i,i,i,i
Cc1ccc(-c2c(C(F)(F)F)nn3c(N4CCN(C)CC4)cc(C)nc23)cc1,i,i,nt,nt
Cc1cc(N2CCOCC2)n2nc(C(F)(F)F)c(-c3ccc(Cl)cc3)c2n1,i,i,i,i
Cc1cc(N2CCOCC2)n2nc(C)c(-c3ccc(F)cc3)c2n1,i,i,nt,nt
NC(=O)c1cc(NC(=O)c2ccc3c(c2)OCCCO3)ccc1N1CCCC1,i,nt,nt,nt
CC(=O)Nc1cnn(-c2ccccc2)c(=O)c1Cl,i,i,nt,nt
O=C(O)c1ccc(-n2ncc(Cl)c(Cl)c2=O)cc1,78!,i,i,i
CCCn1c(N)c(C(=O)CN(C)Cc2ccc(CC)cc2)c(=O)n(C)c1=O,nt,i,nt,nt
CC(NCc1ccc(F)cc1)C12CC3CC(CC(C3)C1)C2 (stereo not drawn),i,nt,i,i
CC(NCc1ccc(F)cc1)C(=O)NC1CCCCC1 (stereo not drawn),i,i,nt,nt
NC(=O)C1CCN(C(=O)c2ccc3c(c2)sc2nc(-c4ccccc4)cn23)CC1,i,i,nt,nt
O=C(CCC(=O)N1CCc2cc(S(=O)(=O)N3CCOCC3)ccc21)N1CCCC1,i,nt,nt,nt
COc1cc(C(=O)Nc2cc(C)c3c(=O)oc4ccccc4c3n2)cc(OC)c1OC,i,i,i,i
SMILES,GIV Gai3 FP,HCMV UL50-53 inh,GIV Gai FP conf,GIV-Gai AS conf
Cc1ccccc1C(=O)Nc1cc(C)c2c(=O)oc3ccccc3c2n1,i,nt,nt,nt
COc1ccccc1NC(=O)c1ccc(NC(=O)CSc2nnc(C)n2N)cc1,nt,i,nt,nt
O=C1OC(c2ccccc2)=N/C1=C1/OC(=O)c2ccccc21,nt,i,nt,nt
CC1=CC(=C2N=C(c3ccccc3)OC2=O)C=C(C)O1,73,i,i,i
O=C(Nc1nc(-c2ccccc2)cc(-c2ccccc2)n1)c1ccccc1,i,i,nt,nt
Cc1nn(-c2ccccc2)c2nc3oc(C(=O)c4ccc(Br)cc4)c(N)c3c(-c3cccnc3)c12,i,i,nt,nt
O=C(Cn1cnc2ccccc21)NN=C1CCCCCC1,nt,i,nt,nt
COc1cccc(C2=CC(c3ccccc3F)n3c(nc4ccccc43)N2)c1 (stereo not drawn),i,nt,nt,nt
COc1ccccc1C1C=C(c2cccnc2)Nc2nc3ccccc3n21 (stereo not drawn),69,i,48,i
CNCC(=O)N1CCCC1,nt,i,nt,nt
CCc1c(C)c(C#N)c2nc3ccccc3n2c1-n1nc(C)cc1C,i,i,i,i
CCc1c(C)c(C#N)c2nc3ccccc3n2c1N1CCCC1,i,i,nt,nt
COC(=O)c1ccc(CSc2ncccn2)o1,i,i,nt,nt
